ChEMBL document CHEMBL4350957, “Use of the 4-Hydroxytriazole Moiety as a Bioisosteric Tool in the Development of Ionotropic Glutamate Receptor Ligands” (J Med Chem, 2019)

The chains behind the UniProt entries cited, without tags or fusion partners. Where a name states a change or a piece, a line headed by the entry shows the natural chain unless it says otherwise.
UniProt P19491: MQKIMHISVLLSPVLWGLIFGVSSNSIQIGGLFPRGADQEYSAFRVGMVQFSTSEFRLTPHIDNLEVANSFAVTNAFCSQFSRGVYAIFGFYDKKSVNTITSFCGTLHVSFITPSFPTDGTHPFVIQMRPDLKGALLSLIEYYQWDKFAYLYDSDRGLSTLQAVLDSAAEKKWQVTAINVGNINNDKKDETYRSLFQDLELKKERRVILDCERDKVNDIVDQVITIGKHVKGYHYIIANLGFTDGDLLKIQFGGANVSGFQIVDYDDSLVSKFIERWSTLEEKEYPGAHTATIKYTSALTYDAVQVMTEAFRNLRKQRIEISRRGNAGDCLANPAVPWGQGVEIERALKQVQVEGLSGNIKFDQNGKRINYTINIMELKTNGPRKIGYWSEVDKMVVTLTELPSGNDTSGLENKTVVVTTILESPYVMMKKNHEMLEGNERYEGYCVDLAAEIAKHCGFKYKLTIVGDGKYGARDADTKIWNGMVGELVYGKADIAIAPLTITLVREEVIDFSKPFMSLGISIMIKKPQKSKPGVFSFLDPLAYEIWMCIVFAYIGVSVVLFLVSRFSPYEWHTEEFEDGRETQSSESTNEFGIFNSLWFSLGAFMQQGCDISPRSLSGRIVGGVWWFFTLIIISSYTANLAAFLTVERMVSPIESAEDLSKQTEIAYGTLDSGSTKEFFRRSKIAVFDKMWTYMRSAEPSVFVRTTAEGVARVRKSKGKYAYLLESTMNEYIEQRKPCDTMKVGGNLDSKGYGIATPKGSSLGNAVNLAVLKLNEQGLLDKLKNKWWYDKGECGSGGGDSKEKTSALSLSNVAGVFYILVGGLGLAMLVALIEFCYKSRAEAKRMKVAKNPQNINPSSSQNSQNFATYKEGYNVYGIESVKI

Biological target: Glutamate receptor 2 (Rattus norvegicus, UniProt P19491)
Assay: biochemical

NC(Cc1c(O)noc1-c1nnn(Cc2ccccc2)n1)C(=O)O (stereo unspecified)
Ki: 750 nM
